Test results from PMC9820828, “Anti-Melanogenesis Effects of a Cyclic Peptide Derived from Flaxseed via Inhibition of CREB Pathway” (International Journal of Molecular Sciences, 2022).

Tested on: B16F10 melanoma cells
Assay: Cell viability (MTT assay)
Assay type: cell-based, mouse
Experimental: Mouse-derived B16F10 melanoma cells were incubated in the DMEM medium supplemented with 10% (v/v) FBS and 1% streptomycin–penicillin solution at 37 °C and 5% CO2. Sub-culture was conducted by detaching the cells with trypsin-EDTA after reaching 90% confluence.
The effects of LOMIX and each LO compound on cell survival were determined using the MTT assay. B16F10 melanoma cells (100 μL of 1.5 × 10^5 cells/mL) were seeded in a 96-well plate with 100 μL of the testing sample [LOMIX (0–200 μg/mL) or LO (0–50 μM)]. After 2 days, MTT solution (10 μL) was added to each well, and cells were incubated for an additional 3 h in the dark. The reaction was stopped by adding 100 μL of 10% SDS complemented with 0.01 M HCl. Moreover, 5000 cells/well of B16F10 melanoma cells were incubated in 96-well plates to check the cytotoxicity of LOMIX in the presence of α-MSH. The 10 μL of MTT solution was added to the cells incubated with the LOMIX (50 and 100 μg/mL) and α-MSH (100 nM) for 0, 24, and 48 h. Subsequently, the stopping solution (100 μL) (10% SDS solution with 0.01 M HCl) was added after 3 h incubation. The absorbance was measured at 570 nm using Synergy™ HTX (Biotek Instruments Inc., Winooski, VT, USA).

[1–9-NαC]-linusorb B2 [LO2]
cell viability (MTT) (25 μM, B16F10 melanoma cells, 48 h): not altered | cell survival (MTT) (50 μM, B16F10 cells, 48 h): declined | toxicity (12.5 and 25 μM, B16F10 cell lines): without toxicity
